Assay: Adsorption on nanocellulose crystals: CNC aggregation monitored by dynamic light scattering
Assay type: physicochemical
Conditions: fixed [surfactant]+[CNC]=0.01 wt % in aqueous solution, DLS, lower range = better adsorption
Description: Following the protocol described in E. K. Oikonomou et al., J. Phys. Chem. B, 2017, 121 (10), 2299-307 the adsorption properties of ammonium compounds can be investigated by monitoring the ratio X=[surfactant]/[CNC] or the mass fraction M=[surfactant]/([surfactant+[CNC]), at fixed [surfactant]+[CNC]=0.01 wt % in aqueous solution, required to induce the agglomeration of the cellulose nanocrystals.
Adsorption of cationic surfactant on negatively charged surface is an important property for various applications. This property is linked to the minimal concentration of cationic surfactant needed to produce aggregation of negatively charged cellulose nano crystal (CNC) in suspension in aqueous media. Comparison of the aggregate size can be monitored by dynamic light scattering (DLS). […]
The range of CNC aggregation corresponds to the range of ratio X (or M) triggering an aggregation of CNC, i.e. the range where the aggregate size measured by DLS is higher than a pure aqueous solution of CNC or an aqueous solution of surfactant at 0.01wt %.
Adsorption properties of surfactant materials QA3 and QA4 were measured in accordance with the protocol described in example 3.

glycine betaine diester [QA3]
Range of CNC aggregation (Mass fraction) Mmin − Mmax (M=[surfactant]/([surfactant]+[CNC])): <<Mmin − Mmax range
Range of CNC aggregation (Ratio) X = [surfactant]/[CNC] Xmin − Xmax: <<Xmin − Xmax range

Reference: patent US20240018093A1, “NEW AMMONIUM COMPOUNDS USEFUL AS SURFACTANTS” (RHODIA OPERATIONS, priority 2020, published 2024)
